In the library only some 3.7% were active in any assay of this set; here they are far more common.
miR-21 reporter = miR-21 reporter, rising signal; HeLa miR-21 FLuc reporter, luciferase, 48 h; Potency, µM (titrated, usually from 38.3 µM), without a hit: top-dose reporter change, positive = more light; AID 2288; 340,000 tested, under 10 active; active = well fitted rising curve with a large enough effect; inconclusive = small, poorly fitted or top-dose-only effect; inactive = no such curve, though single readings can be large or run the other way;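 further: % of control where 0% means no effect; miR-21 action dims this reporter so a rising signal means less miR-21 action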
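HeLa cells stably expressing CMV-driven firefly luciferase with a downstream miR-21 binding sequence, endogenously expressing miR-21, were treated with titrations (up to about 40uM final) for 48 hours at 37 degree Celsius. Luciferase luminescence was read after lysis.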
A549 viability = A549 cytotoxicity, counter-screen for Nrf2 inhibitors; A549 ARE-Fluc cells, CellTiter-Fluor viability, 18-24 h; Potency, µM (titrated, usually from 46 µM), for inactives: at the highest dose activity change, negative = cytotoxicity, usual class: inhibitors; 0.16% of 390,000 active; note: potency is the fitted concentration of half-maximal effect; % is set by controls: 0 for no effect and ±100 for the full control effect
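A549 ARE-Fluc cells in 5% FBS OPTI-MEM, 5000 cells/well, rested 2 h then exposed to compounds in concentration-response for 18-24 h at 37 °C. Viability by CellTiter-Fluor fluorescence (Ex 405/Em 525) after 30 min; luciferase luminescence (BugLite, 15 min, RT) read afterwards.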
ClpP mod = qHTS Assay for Activators of ClpP | purified B. subtilis ClpP, FRET peptide cleavage, 20 min | Potency, µM (titrated, usually from 57.5 µM), for inactives: at the top dose activity change, negative = active | ATP-dependent Clp protease proteolytic subunit (Bacillus subtilis (strain 168)), P80244 | 1.9% of 340,000 active; active = well fitted falling curve with a large enough effect; inconclusive = small, poorly fitted or top-dose-only effect; inactive = no such curve, though single readings can be large or run the other way; note: potency is the fitted concentration of half-maximal effect; the source files actives as falling curves though it sought activators and does not explain the sign; nearly all actives have a fitted effect of over 65% in size
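FRET quenching reversal measured ClpP activation: 10 microg/mL B. subtilis ClpP at pH 8 with the FRET-FV decapeptide, read at 430 nm after 320 nm excitation. The 20-min minus 0-min signal was scaled between DMSO/no-enzyme wells and ADEP (5.8 microM final).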
Nrf2 block = blocks Nrf2 signaling; A549 ARE-Fluc reporter, luciferase luminescence, 18-24 h; Potency, µM (highest dose often 46 µM), inactives show at the top dose activity change, negative = inhibition, hits mostly inhibitors; 2.1% of 360,000 active; AID 504444; note: potency is the fitted concentration of half-maximal effect; % is set by controls: 0 for no effect and ±100 for the full control effect; nearly all actives have a fitted effect of over 60% in size
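Two sequential reads on A549 ARE_Fluc cells exposed to compound for 18-24 h: a CellTiter-Fluor fluorescence read for viability, then a luciferase luminescence read for Nrf2/ARE activity.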
Nrf2 ARE act = activates Nrf2 signaling; AREc32 ARE-luciferase reporter (MCF7-derived line), luminescence, 24 h; Potency, µM (top dose mostly 46.1 µM), for the others: at the top dose activation, usual class: activators; 0.31% of 410,000 active; note: potency is the fitted concentration of half-maximal effect; % of control where 0% means no effect; nearly all actives have a fitted effect of over 65% in size
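ARE activation measured as luciferase luminescence (Steady-Glo, 30 min RT) in AREc32_Fluc cells after 24 hr compound exposure at 37 deg C, 5% CO2; cells seeded overnight at 1000/well in OPTI-MEM, 5% FBS.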
p53 reactivation = mutant p53 re-activation in reporter cells. 0.063% of 320,000 active. Potency, µM (doses to about 92.2 µM), inactives show at the top dose activity change, positive = activation, usual class: activators. H1299 p53-A138V BP100-luciferase reporter, luminescence, 24 h. AID 504706; note: potency is the fitted concentration of half-maximal effect; % of control where 0% means no effect; nearly all actives have a fitted effect of over 45% in size
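p53-null H1299 cells stably carrying temperature-sensitive p53-A138V and a BP100-luciferase reporter were pinned with compounds (4-point, 1:5 series) and held 24 hrs at 37 deg C. Luminescence was read 10 min after detection reagent.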
* marks the source's active call; other numbers are inactive results; ? = inconclusive; . = not tested or not shown; [ ] = dose if it differs, or a comment. Unless noted, calls come from the whole dose curve; as a rule, active = well fitted curve in the direction sought with a large enough effect; inconclusive = small, poorly fitted or top-dose-only effect, or another doubt; inactive = no such curve, though single readings can be large; an effect the other way counts as inactive or inconclusive.

entry	Compound	miR-21 reporter	A549 viability	ClpP mod
1	O=c1c2ccccc2n(Cc2cccc(F)c2)c(=O)n1Cc1ccccc1Cl	5%	2%	-12%
2	Cc1ccc(NS(=O)(=O)c2ccc(-c3ccccc3)cc2)cc1C	.	11%	.
3	Cc1cccc(-c2noc(-c3cc4ccccc4oc3=O)n2)c1	-34%	2%	8.9µM*
4	Cc1ccc(-c2noc(-c3cc4ccccc4oc3=O)n2)cc1	-13%	2%	-7%
5	O=c1oc2ccccc2cc1-c1nc(-c2ccccc2)no1	-37%	13%	28µM*
6	COc1ccc2oc(=O)c(-c3nc(-c4cccs4)no3)cc2c1	-18%	5%	-11%
7	O=c1oc2ccccc2cc1-c1nc(-c2cccs2)no1	-65%	7%	-6%
8	CCCCN1C(=O)C(NC(=O)c2ccc(C(C)(C)C)cc2)(C(F)(F)F)C(C(=O)OC)=C1C (stereo not given)	9%	?	-15%
9	CCOC(=O)c1c(-c2ccccc2)oc2ccc(OCC)cc12	-3%	0%	.
10	COc1ccc2oc(-c3ccccc3)c(C(=O)N3CCOCC3)c2c1	0%	-3%	28µM*
11	CCOc1ccc2oc(-c3ccccc3)c(C(=O)N3CCN(C)CC3)c2c1	1%	.	11µM*
12	COc1ccc(-c2nc(NC(=O)C3CC(=O)N(c4ccc5c(c4)OCCO5)C3)sc2C)cc1 (stereo not given)	28%	?	-6%

entry	Nrf2 block	Nrf2 ARE act	p53 reactivation
1	-20%[9.27 µM]	1%	.
2	?	.	.
3	?	4%	?
4	22%	0%	27%
5	?	4%	?
6	?	13%	.
7	.	13µM*	.
8	-18%	7%	.
9	?	2%	-2%
10	.	4%	-2%
11	1%	-1%	-7%
12	15µM*	0%	10%

Reprinted from the part before: 2 compounds, followed by the next part.
entry	Compound	miR-21 reporter	A549 viability	ClpP mod
11	CCOc1ccc2oc(-c3ccccc3)c(C(=O)N3CCN(C)CC3)c2c1	1%	.	11µM*
12	COc1ccc(-c2nc(NC(=O)C3CC(=O)N(c4ccc5c(c4)OCCO5)C3)sc2C)cc1 (stereo not given)	28%	?	-6%
13	COc1ccc(NS(=O)(=O)c2cccc(NC(=O)CCC(=O)c3ccc(Cl)cc3)c2)cc1	14%	-28%	-2%
14	COc1ccc(NS(=O)(=O)c2cccc(NC(=O)CCC(=O)c3cccs3)c2)cc1	7%	-11%	-1%
15	Cc1ccccc1OCCC(=O)Nc1cccc(S(=O)(=O)Nc2ccccc2Cl)c1	5%	-4%	14µM*
16	CCOc1ccc(Nc2nc3c(S(=O)(=O)c4ccc(CC)cc4)nnn3c3ccc(Cl)cc23)cc1	1%	2%	-5%
17	COc1ccc(NC(=O)CSc2nc3ccccc3n2CC(=O)Nc2cccc(C)c2C)cc1	3%	-9%	0%
18	CC(C)Cc1ccc(CN2CCCC(NC(=O)CCN3CCCCC3=O)C2)cc1 (stereo not given)	-1%	7%	-3%
19	CC(C)Cc1ccc(C(C)/C=C2/CCC(CN3CCCCC3)C2=O)cc1 (stereo not given)	.	17%	-1%
20	C=C(C)CN(CC)c1nc(N)c2c(N)nc3c(c2c1C#N)CC(=O)N3C12CC3CC(CC(C3)C1)C2	?	-17%	16%
21	N#Cc1c(N2CCCC(O)C2)nc(N)c2c(N)nc3c(c12)CC(=O)N3C12CC3CC(CC(C3)C1)C2 (stereo not given)	-19%	?	28%
22	CC1=C(C(=O)Nc2ccc(Cl)cc2)C(c2ccccc2C)n2ncc(C(=O)Nc3ccc(C)cc3)c2N1 (stereo not given)	25%	-4%	32µM*
23	CC1=C(C(=O)Nc2ccc(Cl)cc2)C(c2ccccc2)n2ncc(C(=O)Nc3ccccc3)c2N1 (stereo not given)	?	-24%	5%
24	COc1cccc(C2C(C(=O)Nc3ccc(Cl)cc3)=C(C)Nc3c(C(=O)Nc4ccccc4)cnn32)c1OC (stereo not given)	20%	0%	28µM*

entry	Nrf2 block	Nrf2 ARE act	p53 reactivation
11	1%	-1%	-7%
12	15µM*	0%	10%
13	21µM*	9%	11%
14	-3%	0%	3%
15	-28%	0%	-10%
16	?	-1%	.
17	.	5%	.
18	3%	-2%	9%
19	-8%	13µM*	.
20	13µM*	13%	9%
21	?	6%	-9%
22	-29%	6%	.
23	16µM*	4%	.
24	?	9%	.

An excerpt from above in order of SMILES length, ascending:
entry	Compound	miR-21 reporter	A549 viability	ClpP mod
14	COc1ccc(NS(=O)(=O)c2cccc(NC(=O)CCC(=O)c3cccs3)c2)cc1	7%	-11%	-1%
16	CCOc1ccc(Nc2nc3c(S(=O)(=O)c4ccc(CC)cc4)nnn3c3ccc(Cl)cc23)cc1	1%	2%	-5%
22	CC1=C(C(=O)Nc2ccc(Cl)cc2)C(c2ccccc2C)n2ncc(C(=O)Nc3ccc(C)cc3)c2N1 (stereo not given)	25%	-4%	32µM*

entry	Nrf2 block	Nrf2 ARE act	p53 reactivation
14	-3%	0%	3%
16	?	-1%	.
22	-29%	6%	.

Other results
entry	Compound	miR-21 reporter	A549 viability	ClpP mod
25	COc1ccc(NC(=O)C2=C(C)Nc3c(C(=O)Nc4ccc(C)cc4)cnn3C2c2cccc(Cl)c2)cc1 (stereo not given)	12%	-2%	-5%
26	COc1cc(-c2cc(OC)c3c(C)oc(C)c3c(=O)c2)ccc1OC(=O)c1cccc(C)c1	-7%	-12%	1%
27	CCOC(=O)c1sc2nc(N3CCOCC3)c3c(c2c1N)CCN(Cc1ccccc1)C3	-9%	-5%	25µM*
28	CC1(C)Cc2c(c(N3CCOCC3)nc3sc(C(N)=O)c(N)c23)CO1	-4%	0%	-1%
29	CCOC(=O)c1sc2nc(N3CCOCC3)c3c(c2c1N)CC(C)(C)N(C)C3	-16%	9%	7.1µM*
30	CCOC(=O)c1sc2nc(N3CCOCC3)c3c(c2c1N)CCC3	-34%	0%	97%
31	CC1(C)Cc2c(c(N3CCOCC3)nc3sc(C#N)c(N)c23)CS1	-21%	3%	28µM*
32	CN1Cc2c(N3CCOCC3)nc3sc(C(=O)c4ccccc4)c(N)c3c2CC1(C)C	-4%	3%	.
33	COc1ccc(-n2c(=O)/c(=C\c3cccs3)s/c2=C(/C#N)C(=O)N2CCN(C)CC2)cc1	-46%	-9%	32µM*
34	N#C/C(C(=O)N1CCOCC1)=c1/s/c(=C\c2ccccn2)c(=O)n1-c1ccccc1	-2%	-15%	.
35	Cc1ccc(-n2nnnc2Sc2ccc(S(=O)(=O)NCCN(C)C)cc2[N+](=O)[O-])cc1	?	6.5µM*	-3%
36	COc1cccc(C2C(C#N)=C(NC(=O)CCc3ccccc3)Oc3ccc4ccccc4c32)c1 (stereo not given)	.	-3%	.
37	CCOc1ccc(N(CC(=O)Nc2cccc(Cl)c2)S(=O)(=O)c2c(C)noc2C)cc1	?	?	-4%
38	Cc1n[nH]c(C)c1S(=O)(=O)N(CC(=O)Nc1ccc(C(F)(F)F)cc1)c1ccc(C(C)C)cc1	?	-25%	3%
39	Cc1noc(C)c1S(=O)(=O)N(CC(=O)Nc1ccc(C(F)(F)F)cc1)c1ccc(C(C)C)cc1	15%	-13%	-5%

entry	Nrf2 block	Nrf2 ARE act	p53 reactivation
25	?	0%	.
26	-8%	12%	.
27	-17%	0%	1%
28	-12%	0%	5%
29	3%	0%	0%
30	?	5%	15%
31	1%	0%	.
32	-23%	3%	1%
33	-5%	10%	4%
34	-9%	2%	3%
35	10µM*	?	-31%
36	10%	.	.
37	23µM*	0%	12%
38	?	-4%	.
39	16µM*	4%	.
